Where two headings read alike, the source gives them in different places.
How the values were obtained:
[1] = target: T1, nAChR α7 (Homo sapiens, UniProt P36544); assay: nAChR α7 channel positive allosteric modulator assay (FLIPR); format: cell-based; conditions: with 30 μM Ach, 100% = 30 μM Ach+10 μM PNU-120596, 0% = 30 μM Ach, read-out: Normalized % Potentiation
T1 construct: host or cells: CHO cells coexpressing RIC-3
Protocol: (§1) Briefly, cells were incubated with […] dye for 30 min at 37° C.
Neither test article potentiated the activity of the nAChR α7 receptor.

Chains of the proteins cited; added tags and fusions are not shown. Residues count along the entry.
UniProt P36544, 23-502: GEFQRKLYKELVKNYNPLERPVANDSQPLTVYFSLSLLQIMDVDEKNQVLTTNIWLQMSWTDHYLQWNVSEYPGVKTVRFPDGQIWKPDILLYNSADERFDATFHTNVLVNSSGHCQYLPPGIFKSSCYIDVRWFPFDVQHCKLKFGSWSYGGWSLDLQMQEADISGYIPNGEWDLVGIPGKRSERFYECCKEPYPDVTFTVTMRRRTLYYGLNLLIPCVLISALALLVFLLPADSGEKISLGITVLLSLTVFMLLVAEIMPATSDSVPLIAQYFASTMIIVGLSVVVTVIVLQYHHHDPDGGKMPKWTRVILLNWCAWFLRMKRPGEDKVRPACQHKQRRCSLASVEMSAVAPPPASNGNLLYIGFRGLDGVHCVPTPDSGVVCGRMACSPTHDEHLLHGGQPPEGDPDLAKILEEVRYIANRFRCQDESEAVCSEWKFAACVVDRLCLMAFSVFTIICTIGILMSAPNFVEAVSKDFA
UniProt P30926, 22-498: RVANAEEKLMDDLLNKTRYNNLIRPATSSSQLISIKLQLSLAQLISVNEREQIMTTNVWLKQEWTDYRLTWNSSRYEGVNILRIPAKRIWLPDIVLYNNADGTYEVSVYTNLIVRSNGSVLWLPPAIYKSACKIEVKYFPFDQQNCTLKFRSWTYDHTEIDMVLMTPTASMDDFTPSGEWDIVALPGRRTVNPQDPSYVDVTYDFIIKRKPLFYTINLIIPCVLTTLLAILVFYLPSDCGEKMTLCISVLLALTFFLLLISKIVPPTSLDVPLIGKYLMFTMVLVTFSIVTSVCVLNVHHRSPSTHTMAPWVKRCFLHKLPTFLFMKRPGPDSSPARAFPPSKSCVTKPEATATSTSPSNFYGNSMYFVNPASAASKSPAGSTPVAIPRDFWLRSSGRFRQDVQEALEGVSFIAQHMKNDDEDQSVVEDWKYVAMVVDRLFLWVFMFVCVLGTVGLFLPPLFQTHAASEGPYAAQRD
UniProt P32297, 32-505: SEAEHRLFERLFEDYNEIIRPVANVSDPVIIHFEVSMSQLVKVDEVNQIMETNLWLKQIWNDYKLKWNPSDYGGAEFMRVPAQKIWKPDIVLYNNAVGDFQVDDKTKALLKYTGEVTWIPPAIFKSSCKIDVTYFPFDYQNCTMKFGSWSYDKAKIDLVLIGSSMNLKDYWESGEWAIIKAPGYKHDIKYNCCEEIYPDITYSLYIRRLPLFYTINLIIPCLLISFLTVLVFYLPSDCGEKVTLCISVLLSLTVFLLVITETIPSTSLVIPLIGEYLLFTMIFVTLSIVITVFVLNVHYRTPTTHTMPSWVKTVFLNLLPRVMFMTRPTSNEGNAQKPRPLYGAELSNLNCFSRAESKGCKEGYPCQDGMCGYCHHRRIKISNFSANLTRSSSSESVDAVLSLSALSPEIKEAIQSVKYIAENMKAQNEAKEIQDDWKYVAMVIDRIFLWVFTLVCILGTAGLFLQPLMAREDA
UniProt P17787, 26-502: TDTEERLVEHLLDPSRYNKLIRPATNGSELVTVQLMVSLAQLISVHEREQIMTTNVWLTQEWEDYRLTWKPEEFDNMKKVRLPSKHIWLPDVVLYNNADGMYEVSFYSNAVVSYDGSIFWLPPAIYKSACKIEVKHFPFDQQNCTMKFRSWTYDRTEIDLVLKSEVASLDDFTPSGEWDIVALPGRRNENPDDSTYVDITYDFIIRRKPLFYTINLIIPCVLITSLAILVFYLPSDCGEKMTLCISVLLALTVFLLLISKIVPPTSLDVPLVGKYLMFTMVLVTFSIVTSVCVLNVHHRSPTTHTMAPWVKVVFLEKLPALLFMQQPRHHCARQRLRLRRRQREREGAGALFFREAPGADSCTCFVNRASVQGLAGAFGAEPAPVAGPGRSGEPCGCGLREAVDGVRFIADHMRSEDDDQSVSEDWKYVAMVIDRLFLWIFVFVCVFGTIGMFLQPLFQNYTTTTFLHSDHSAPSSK
UniProt P43681, 29-627: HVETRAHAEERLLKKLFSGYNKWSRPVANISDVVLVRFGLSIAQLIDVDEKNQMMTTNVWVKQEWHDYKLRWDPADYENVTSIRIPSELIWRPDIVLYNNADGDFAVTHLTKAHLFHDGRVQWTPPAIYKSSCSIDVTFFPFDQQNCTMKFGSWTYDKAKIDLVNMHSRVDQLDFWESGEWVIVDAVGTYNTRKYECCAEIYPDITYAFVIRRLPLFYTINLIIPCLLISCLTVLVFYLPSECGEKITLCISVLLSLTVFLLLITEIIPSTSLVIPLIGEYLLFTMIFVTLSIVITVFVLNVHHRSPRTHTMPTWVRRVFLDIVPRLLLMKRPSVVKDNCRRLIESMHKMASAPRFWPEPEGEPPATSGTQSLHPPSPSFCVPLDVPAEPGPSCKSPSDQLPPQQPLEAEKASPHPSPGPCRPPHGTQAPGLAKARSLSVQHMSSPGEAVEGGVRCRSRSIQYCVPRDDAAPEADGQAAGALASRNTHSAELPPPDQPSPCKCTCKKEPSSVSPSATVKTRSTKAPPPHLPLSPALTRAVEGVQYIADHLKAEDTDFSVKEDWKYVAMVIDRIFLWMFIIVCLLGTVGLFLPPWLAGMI

[2] = target: T2, nAChR α3/β4 (Homo sapiens, UniProt P30926+P32297); assay: nAChR α3/β4 channel agonist assay (FLIPR); format: cell-based; conditions: 100% = 30 μM Ach, 0% = HBPS
Protocol: as §1

[3] = target: T3, nAChR α4/β2 (Homo sapiens, UniProt P17787+P43681); assay: nAChR α4/β2 channel agonist assay (FLIPR); format: cell-based; conditions: 100% = 30 μM Ach, 0% = HBPS
T3 construct: host or cells: HEK293 cells, transient
Protocol: as §1

[4] = target: T2, nAChR α3/β4; format: cell-based; conditions: with 10 μM Ach, 100% = 10 μM Ach+1 μM epibatidine, 0% = 10 μM Ach
Protocol: as §1

[5] = target: T1, nAChR α7; assay: nAChR α7 channel antagonist assay (FLIPR); format: cell-based; conditions: with 300 μM Ach+10 μM PNU-120596, control antagonist 10 μM MLA, read-out: Normalized % Inhibition
Protocol: as §1
Inhibition was not concentration-dependent and the IC50s could not be determined for either test article.

[6] = target: T1, nAChR α7; assay: nAChR α7 channel agonist assay (FLIPR); format: cell-based; conditions: in presence of PNU-120596, 100% = 30 μM Ach+10 μM PNU-120596, 0% = HBPS
Protocol: as §1
In the absence of PNU-120596, the nAChR α7 receptor became desensitized very quickly before any agonist effect of Ach could be observed. Therefore, the assay of agonist activity for either Ach or for the test articles was conducted in the presence of the positive allosteric modulator.

[7] = Single i.v. dose toxicity: coagulation (aPTT, PT); format: in vivo, Sprague-Dawley rats; conditions: nicotine 0.75 mg/kg single i.v. dose; male rats; individual animals E1, E2, E3, E5; tartrate
Text: On day 15, urine was collected on all surviving animals for urinalysis. The animals were euthanized and bled via cardiac puncture. Blood was collected for hematology, clinical chemistry, and coagulation analysis. Tissues were collected, weighed, and stored in 10% neutral-buffered formalin for possible future analysis.

[8] = target: T3, nAChR α4/β2; assay: cell-based; conditions: read-out: Normalized % Inhibition
Protocol: as §1

[9] = target: T2, nAChR α3/β4; assay: cell-based; conditions: read-out: Normalized % Inhibition
Protocol: as §1

CN1CCCC1c1cccnc1.O=C(O)C(O)C(O)C(=O)O (single isomer, unassigned; (-)) [Nicotine, (−) Nicotine hydrogen tartrate]
activation at 0.3 µM ([1]; test conc 0.3 μm): -0.95%
activation at 1 µM ([1]; test conc 1 μm): -1.03%
activation at 3 µM ([1]; test conc 3 μm): -0.81%
activation at 10 µM ([1]; test conc 10 μm): -0.61%
activation at 30 µM ([1]; test conc 30 μm): -0.47%
activation at 100 µM ([1]; test conc 100 μm): -0.46%
activation at 300 µM ([1]; test conc 300 μm): -0.34%
activation at 1000 µM ([1]; test conc 1000 μm): -0.51%
Normalized % Activation ([2]; test conc 0.3 μM): 0.94%
Normalized % Activation ([2]; test conc 1 μM): −1.28%
Normalized % Activation ([2]; test conc 3 μM): 1.11%
Normalized % Activation ([2]; test conc 10 μM): 38.17%
Normalized % Activation ([2]; test conc 30 μM): 122.59%
Normalized % Activation ([2]; test conc 100 μM): 201.50%
Normalized % Activation ([2]; test conc 300 μM): 264.77%
Normalized % Activation ([2]; test conc 1000 μM): 208.23%
Normalized % Activation ([3]; test conc 0.3 μM): 16.27%
Normalized % Activation ([3]; test conc 1 μM): 34.05%
Normalized % Activation ([3]; test conc 3 μM): 61.88%
Normalized % Activation ([3]; test conc 10 μM): 74.31%
Normalized % Activation ([3]; test conc 30 μM): 75.53%
Normalized % Activation ([3]; test conc 100 μM): 71.02%
Normalized % Activation ([3]; test conc 300 μM): 58.23%
Normalized % Activation ([3]; test conc 1000 μM): 57.05%
Normalized % Potentiation ([4]; test conc 0.3 μM): −1.23%
Normalized % Potentiation ([4]; test conc 1 μM): −1.19%
Normalized % Potentiation ([4]; test conc 3 μM): −3.92%
Normalized % Potentiation ([4]; test conc 10 μM): −5.67%
Normalized % Potentiation ([4]; test conc 30 μM): −9.28%
Normalized % Potentiation ([4]; test conc 100 μM): −9.72%
Normalized % Potentiation ([4]; test conc 300 μM): −8.45%
Normalized % Potentiation ([4]; test conc 1000 μM): −9.57%
inhibition at 0.3 µM ([5]; test conc 0.3 μm): 2.78%
inhibition at 1 µM ([5]; test conc 1 μm): 11.8%
inhibition at 3 µM ([5]; test conc 3 μm): 41.2%
inhibition at 10 µM ([5]; test conc 10 μm): 32.5%
inhibition at 30 µM ([5]; test conc 30 μm): 39.2%
inhibition at 100 µM ([5]; test conc 100 μm): 18.6%
inhibition at 300 µM ([5]; test conc 300 μm): 14.1%
inhibition at 1000 µM ([5]; test conc 1000 μm): -37%
Normalized % Activation ([6]; test conc 0.3 μm): −1.03%
Normalized % Activation ([6]; test conc 1 μm): 0.15%
Normalized % Activation ([6]; test conc 3 μm): 0.72%
Normalized % Activation ([6]; test conc 10 μm): 2.44%
Normalized % Activation ([6]; test conc 30 μm): 5.19%
Normalized % Activation ([6]; test conc 100 μm): 11.60%
Normalized % Activation ([6]; test conc 300 μm): 27.93%
Normalized % Activation ([6]; test conc 1000 μm): 48.47%
P[…] [7]: 13 s
inhibition at 0.3 µM [8]: 85.9%
inhibition at 3 µM [8]: 85.7%
inhibition at 10 µM [8]: 109%
inhibition at 30 µM [8]: 107%
inhibition at 100 µM [8]: 91.9%
inhibition at 300 µM [8]: 95.3%
inhibition at 1000 µM [8]: 108%
inhibition at 3 µM [9]: 37.8%

— US20160030407A1, “Method of Treating Inflammatory Lung Disease” (priority 2010, published 2016)
